Test results: ChEMBL document CHEMBL3286196 (J Med Chem, 2014)

The chains behind the UniProt entries cited, without tags or fusion partners.
UniProt Q16881, whole entry, looked up: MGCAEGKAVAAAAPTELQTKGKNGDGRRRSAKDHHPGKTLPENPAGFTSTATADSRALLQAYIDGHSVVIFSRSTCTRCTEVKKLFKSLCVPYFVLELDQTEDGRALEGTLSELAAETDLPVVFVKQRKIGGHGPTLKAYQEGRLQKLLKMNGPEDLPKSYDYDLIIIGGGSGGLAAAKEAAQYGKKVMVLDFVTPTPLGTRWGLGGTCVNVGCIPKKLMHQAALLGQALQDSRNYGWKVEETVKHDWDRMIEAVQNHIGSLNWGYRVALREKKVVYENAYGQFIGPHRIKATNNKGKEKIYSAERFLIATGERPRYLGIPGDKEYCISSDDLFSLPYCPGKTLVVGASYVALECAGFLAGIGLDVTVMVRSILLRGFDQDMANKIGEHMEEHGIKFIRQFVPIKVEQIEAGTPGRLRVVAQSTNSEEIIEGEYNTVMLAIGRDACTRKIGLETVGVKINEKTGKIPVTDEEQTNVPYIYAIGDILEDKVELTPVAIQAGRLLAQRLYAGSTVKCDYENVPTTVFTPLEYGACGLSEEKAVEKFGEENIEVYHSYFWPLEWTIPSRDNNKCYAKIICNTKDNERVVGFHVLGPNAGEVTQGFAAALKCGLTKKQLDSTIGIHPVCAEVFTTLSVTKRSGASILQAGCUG
UniProt Q9NNW7, whole entry, looked up: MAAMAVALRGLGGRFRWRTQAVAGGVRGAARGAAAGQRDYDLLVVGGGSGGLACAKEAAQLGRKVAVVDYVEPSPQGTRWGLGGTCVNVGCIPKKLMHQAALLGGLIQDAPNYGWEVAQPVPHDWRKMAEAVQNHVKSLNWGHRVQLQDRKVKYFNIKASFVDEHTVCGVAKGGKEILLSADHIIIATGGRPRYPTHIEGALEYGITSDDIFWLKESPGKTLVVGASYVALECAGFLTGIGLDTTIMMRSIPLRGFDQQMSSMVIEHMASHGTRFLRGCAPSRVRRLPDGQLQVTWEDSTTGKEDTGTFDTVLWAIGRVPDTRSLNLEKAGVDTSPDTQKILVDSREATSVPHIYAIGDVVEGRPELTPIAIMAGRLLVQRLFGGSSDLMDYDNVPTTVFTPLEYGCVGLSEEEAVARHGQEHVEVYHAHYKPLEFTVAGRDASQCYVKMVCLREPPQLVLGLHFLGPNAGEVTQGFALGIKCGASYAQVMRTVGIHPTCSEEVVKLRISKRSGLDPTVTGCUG
UniProt Q86VQ6, whole entry, looked up: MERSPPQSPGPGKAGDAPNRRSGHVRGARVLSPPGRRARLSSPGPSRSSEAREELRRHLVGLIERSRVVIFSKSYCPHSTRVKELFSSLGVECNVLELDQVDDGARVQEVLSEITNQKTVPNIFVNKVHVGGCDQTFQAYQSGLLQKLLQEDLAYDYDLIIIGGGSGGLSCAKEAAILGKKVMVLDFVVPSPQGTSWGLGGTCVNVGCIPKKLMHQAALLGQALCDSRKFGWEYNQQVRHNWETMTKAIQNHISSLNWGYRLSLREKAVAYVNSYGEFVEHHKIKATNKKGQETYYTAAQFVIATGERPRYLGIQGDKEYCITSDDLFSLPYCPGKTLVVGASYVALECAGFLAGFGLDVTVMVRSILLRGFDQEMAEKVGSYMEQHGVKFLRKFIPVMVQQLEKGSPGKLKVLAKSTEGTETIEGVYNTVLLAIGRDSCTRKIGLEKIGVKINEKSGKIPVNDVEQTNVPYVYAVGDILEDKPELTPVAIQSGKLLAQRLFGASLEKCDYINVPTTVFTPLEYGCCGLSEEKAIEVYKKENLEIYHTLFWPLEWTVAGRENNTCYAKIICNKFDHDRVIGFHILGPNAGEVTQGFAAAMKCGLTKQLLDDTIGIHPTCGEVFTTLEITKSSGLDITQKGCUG

Tests used:
HL-60 [1] = experiment: Induction of apoptosis in human HL60 cells assessed as condensed and highly fluorescent nuclei at 0.5 to 2 uM after 24 hrs by Hoechst 33342 staining-based fluorescence microscopy
HL-60 [2] = experiment: Reduction in cellular GSH in human HL60 cells assessed as intracellular GSH at 100 uM after 24 hrs relative to control; design: scale not given: the % may be the effect or the level left
HeLa [3] = experiment: Cytotoxicity against human HeLa cells transfected with shTrxR1 RNA at 2 to 5 uM after 48 hrs by MTT assay
HEK293 [4] = experiment: Cytotoxicity against HEK cells expressing TrxR1 at 2 to 5 uM after 48 hrs by MTT assay; settings: Homo sapiens
Homo sapiens = species: Homo sapiens; experiment: Inhibition of glutathione peroxidase (unknown origin) at 10 uM
[5] = target: T1, Thioredoxin reductase (Homo sapiens) (UniProt Q16881+Q9NNW7+Q86VQ6); experiment: Binding affinity to TrxR activity in human HeLa cell lysate after 30 mins incubation by pulldown/Western blotting analysis
HEK293 [6] = experiment: Cytotoxicity against HEK cells expressing IRES at 2 to 5 uM after 48 hrs by MTT assay; settings: Homo sapiens
HL-60 [7] = experiment: Induction of ROS production in human HL60 cells at 1 uM for 30 mins incubation with 10 uM DCFH-DA after 1 to 2 hrs by fluorescence microscopy
HL-60 [8] = experiment: Induction of apoptosis in human HL60 cells after 12 to 24 hrs by annexin V-FITC/propidium iodide staining
HL-60 [9] = experiment: Induction of apoptosis in human HL60 cells assessed as increase in caspase 3 activity at 0.5 to 2 uM after 24 hrs by colorimetric assay
HL-60 [10] = experiment: Reduction in cellular thiols in human HL60 cells at 2 to 10 uM after 12 to 24 hrs by DTNB titration
HL-60 [11] = experiment: Induction of apoptosis in human HL60 cells at 0.5 to 5 uM by annexin V-FITC/propidium iodide staining
HeLa [12] = experiment: Induction of TrxR protein expression in human HeLa cells at 2 uM after 12 hrs by Western blotting analysis
Rattus norvegicus = species: Rattus norvegicus; experiment: Inhibition of NADPH-reduced rat recombinant wild type TrxR at 40 nM after 30 mins by DTNB assay in presence of 1 mM GSH
HL-60 [13] = experiment: Induction of ROS production in human HL60 cells assessed as relative fluorescence intensity at 1 uM for 30 mins incubation with 10 uM DCFH-DA after 1 to 2 hrs by fluorescence microscopy
HeLa [14] = experiment: Induction of TrxR protein expression in human HeLa cells at 1 uM after 24 hrs by Western blotting analysis
[15] = target: T1, Thioredoxin reductase (Homo sapiens); experiment: Inhibition of human TrxR activity in living human HeLa cells after 4 hrs by TRFS-green based fluorescence microscopy imaging

Compound: Nc1ccc([As]2SCCCS2)cc1
- Activity (HL-60 [1]): Active
- Activity (HL-60 [2]): < 20%
- Activity (HeLa [3]): Active
- Activity (HEK293 [4]): Active
- inhibition (Homo sapiens): inactive
- Activity [5]: Active
- Activity (HEK293 [6]): Active
- Activity (HL-60 [7]): Active
- Activity (HL-60 [8]): Dose-dependent effect
- Activity (HL-60 [9]): Active
- inhibition (HL-60 [10]): Active
- Activity (HL-60 [11]): tde
- Activity (HeLa [12]): Active
- inhibition (Rattus norvegicus): Active
- Activity (HL-60 [13]): Active
- Activity (HeLa [14]): Active
- inhibition [15]: Active

Calls of active or inactive are those of the source. The calls are words filed in the database; no cut-off is given here.
